C2C12 statin: suppressors of statin myotoxicity in C2C12 myotubes, primary screen, cell-based, single point, plate reader; C2C12 myotubes + simvastatin, ATP luminescence, 48 h; scaled: DMSO 0, geranylgeraniol control 100; rescue of ATP level, % at 7.49 µM; 330,000 tested, 0.78% active; AID 602340, 2012;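 active = mean ATP rescue above about 67%, or every replicate alone reaching that limit, limit read from the data, passing the limit was not always enough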;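 note: myotubes were challenged with 10 µM simvastatin during compound exposure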
Yeast UUG start: modulators of yeast start codon fidelity, primary screen, whole organism, S. cerevisiae, single point, plate reader. S. cerevisiae UUG-firefly luciferase reporter, luminescence/redox ratio. activity score, % at 18.7 µM. 350,000 tested, 0.13% active;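 active = replicate mean at a twofold rise or more, about +100% in these data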;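 also: firefly luciferase made from a UUG start codon reports start codon fidelity; reporter light over untreated wells divided by growth signal over untreated wells; some hits fall short of that in this replicate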
esBAF inh: Bmi1 luciferase reporter increase in mESCs, primary screen, esBAF inhibitor project, mouse ES cells, Bmi1 luciferase knock-in, single point | 350,000 tested, 2% active | 24 h; 100% = twice the neutral-well signal | reporter increase, % at 12.5 µM; in the data active = activation above about 40%;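 note: a rise in the Bmi1 reporter signal indicates esBAF inhibition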
PGC1a acetyl inh: inhibitors of PGC1a acetylation signal, primary screen, cell-based, U2OS, AlphaScreen, inhibitor mode; AlphaScreen anti-acetyl-lysine; with virally co-expressed GCN5 acetyltransferase; inhibition, % at 15.6 µM; 350,000 tested, 0.17% active; AID 651687, 2012;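 active = every replicate shows inhibition of at least 40%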
E-selectin induc: E-selectin induction in HUVECs, primary screen, imaging, HUVEC, immunofluorescence imaging, single point; P16581; normalized: neutral wells 0, TNF-alpha wells 100; activation, % at 7.58 µM; 260,000 tested, 0.37% active;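 active = mean E-selectin-positive cell signal at least 10% of the positive control, reached in at least 60% of replicates, without over 20% cell loss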
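assay system = HUVEC, human umbilical vein endothelial cells | input = 3,000 HUVEC seeded per well | medium = EGM-2 growth medium on 0.1% gelatin-coated wells | dosing = one compound dose added by pin transfer | signal = immunofluorescence imaging | read-out basis = % PE-positive cells | control set = TNF-alpha, DMSO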
PglD DTNB: C. jejuni PglD acetyltransferase inhibitors, primary screen, biochemical, DTNB colorimetric, single point; inhibition, % at 12.5 µM; UDP-N-acetylbacillosamine N-acetyltransferase PglD (Campylobacter jejuni); purified PglD enzyme, DTNB colorimetric CoA detection; 360,000 tested, 0.098% active; in the data active = inhibition above about 16%, passing the limit was not always enough
Large screens that a line does not name were inactive. Only some compounds are listed: those with a hit (about 2.8% of all), similar ones and a draw of the others.

C[C@H]1CCCCO[C@@H](CN(C)C(=O)Nc2cccc3ccccc23)[C@@H](C)CN([C@@H](C)CO)C(=O)c2cc(NC(=O)Cc3ccccc3)ccc2O1	none
O=C(CC(Nc1ccc(F)cc1)C(=O)O)c1ccccc1 (stereo not drawn)	esBAF inh 49 (no result: E-selectin induc)
CCN(CC)C(=O)c1cc(-c2ccc(Br)cc2)on1	esBAF inh 75 (no result: E-selectin induc)
COC(=O)c1cc(-c2ccc(Br)cc2)on1	none (no result: PGC1a acetyl inh, E-selectin induc)
Cc1cc2c(N=O)c(NO)ccc2[nH]1	C2C12 statin 80 (no result: E-selectin induc)
O=C1CNC[C@H]2[C@@H](c3ccc(C#CC4CCCCC4)cc3)[C@@H](CO)N12	none (no result: C2C12 statin, Yeast UUG start, esBAF inh, PglD DTNB)
COc1ccc(C2N=C(c3ccccc3)NO2)cc1OC (stereo not drawn)	esBAF inh 52 (no result: E-selectin induc)
COc1cc(C2N=C(c3ccccc3)NO2)cc(Br)c1O (stereo not drawn)	none (no result: E-selectin induc)
O=C1OC(c2ccccc2)=C/C1=C/c1cccs1	esBAF inh 26 (no result: C2C12 statin, PGC1a acetyl inh)
Nc1nnnn1/N=C/c1ccccn1	C2C12 statin 83 (no result: E-selectin induc)
CC(=O)n1cc([C@@H]2C=C(C(N)=O)O[C@H](OCCCCO)C2)c2ccccc21	none (no result: C2C12 statin, esBAF inh, PGC1a acetyl inh, E-selectin induc)
COC(=O)CNc1c(-c2ccccc2)nc2ccc(Br)cn12	esBAF inh 50 (no result: C2C12 statin, PGC1a acetyl inh, E-selectin induc)
COc1ccccc1NC(=O)N[C@H]1CC[C@H](CCn2cc(-c3ccccc3OC)nn2)O[C@H]1CO	none
CCc1c(C)nc2cc(-c3cccc(Br)c3)[nH]n2c1=O	esBAF inh 56 (no result: PGC1a acetyl inh)
COCc1cc(=O)n2[nH]c(-c3cccc(Br)c3)cc2n1	none (no result: E-selectin induc)
CCc1c(C)nc2cc(-c3ccc(Cl)cc3)[nH]n2c1=O	esBAF inh 56
COCn1c(COc2ccc3ccccc3c2)nc2ccccc21	esBAF inh 79 (no result: E-selectin induc)
COCc1nc2ccccc2n1CCCOc1ccccc1	C2C12 statin 127 (no result: E-selectin induc)
CCOCCn1c(COc2ccccc2)nc2ccccc21	C2C12 statin 122 (no result: E-selectin induc)
Cn1cnc(S(=O)(=O)N2CCCCC2c2cc(C(=O)Nc3ccc(F)c(Cl)c3)no2)c1 (stereo not drawn)	esBAF inh 45
COc1ccc(NC(=O)c2cc(C3CCCCN3S(=O)(=O)Cc3ccccc3)on2)cn1 (stereo not drawn)	esBAF inh 51
O=C(NCc1ccccc1)c1cc(C2CCCCN2S(=O)(=O)Cc2ccccc2)on1 (stereo not drawn)	none (no result: PGC1a acetyl inh, E-selectin induc)
Cn1cnc(S(=O)(=O)N2CCCCC2c2cc(C(=O)Nc3ccccc3Cl)no2)c1 (stereo not drawn)	none (no result: E-selectin induc)
O=C(Nc1ccccc1)c1ccc(Br)o1	none (no result: PGC1a acetyl inh, E-selectin induc)
CCN(CC)c1ccc(NC(=O)c2ccc(Br)o2)cc1	esBAF inh 43 (no result: E-selectin induc)
COC(=O)Cc1ccc(NC(=O)c2ccc(Br)o2)cc1	esBAF inh 57 (no result: Yeast UUG start, E-selectin induc, PglD DTNB)
COc1ccc(CN(C)C[C@H]2OCCCC[C@@H](C)Oc3ccc(NC(=O)Nc4ccc(C(F)(F)F)cc4)cc3C(=O)N([C@@H](C)CO)C[C@H]2C)cc1	none (no result: E-selectin induc)
Cc1ccc(NC(=O)NC(=O)N(c2ccccc2)S(C)(=O)=O)cc1	esBAF inh 76 (no result: E-selectin induc)
CCN(CC(=O)Nc1ccc2c(c1)OCCO2)C(=O)/C=C/c1cccc(Br)c1	esBAF inh 63 (no result: PGC1a acetyl inh)
C=CCNC(=O)c1cccn1-c1ccsc1C(=O)OC	C2C12 statin 91 (no result: E-selectin induc)
C=CCn1c(COc2cccc3ccc(C)nc23)nnc1SCC(=O)O	none (no result: E-selectin induc)
C=CCn1c(COc2cccc3cccnc23)nnc1SCC(=O)O	C2C12 statin 105 (no result: E-selectin induc)
O=c1cc(-c2ccccc2F)oc2ccccc12	esBAF inh 58
Cc1nn(C(=O)c2cccs2)c(N)c1-c1ccccc1	esBAF inh 85
CN(C)c1ccc(N=c2sc3ccccc3n2C)cc1	esBAF inh 82 (no result: E-selectin induc)
COCCCN(C(C)=O)c1nc(-c2ccccc2)cs1	esBAF inh 46 (no result: E-selectin induc)
O=C(Nc1ccc(N2CCOCC2)c(Cl)c1)c1ccc(Br)o1	esBAF inh 60 (no result: E-selectin induc)
O=C(Nc1ccccc1N1CCOCC1)c1cc2ccccc2o1	none (no result: E-selectin induc)
O=C(Nc1ccc(N2CCOCC2)c(Cl)c1)c1cc2ccccc2o1	esBAF inh 64 (no result: PGC1a acetyl inh, E-selectin induc)
O=C(Nc1ccc(N2CCN(C(=O)c3ccccc3)CC2)c(Cl)c1)c1ccc(Br)o1	none (no result: Yeast UUG start, E-selectin induc, PglD DTNB)
C[C@H](CO)N1C[C@H](C)[C@H](CN(C)Cc2ccc(Oc3ccccc3)cc2)Oc2c(NS(=O)(=O)c3cccs3)cccc2C1=O	none
CCCCN(CCNP(=O)(OCC)OCC)CP(=O)(OCC)OCC	C2C12 statin 72 (no result: E-selectin induc)
CC(=O)c1ccc(NC(=O)Nc2sc(NS(=O)(=O)c3ccccc3)nc2C)cc1	C2C12 statin 100 (no result: E-selectin induc)
COCC(=O)N1CC(=O)N2[C@@H](CO)[C@H](c3ccc(-c4ccncc4)cc3)[C@@H]2C1	PGC1a acetyl inh 102 (no result: C2C12 statin, Yeast UUG start, esBAF inh, PglD DTNB)
CC(C)C#Cc1ccc([C@@H]2[C@@H](CO)N3C(=O)CN(C(=O)NC4CCCC4)C[C@H]23)cc1	none (no result: C2C12 statin, Yeast UUG start, esBAF inh, PglD DTNB)
CC(C)C#Cc1ccc([C@@H]2[C@H](CO)N3C(=O)CN(C(=O)NC4CCCC4)C[C@@H]23)cc1	PGC1a acetyl inh 107 (no result: C2C12 statin, Yeast UUG start, esBAF inh, PglD DTNB)
CCC(=O)Nc1nc2ccc3nc(C)sc3c2s1	esBAF inh 46
Cc1cccc(-c2ccc([C@H]3[C@@H](CO)N4CCCCN(C(=O)c5ccncc5)C[C@H]34)cc2)c1	none
Cc1cccc(Nc2nc(N)nc(CSc3nccn3C)n2)c1	esBAF inh 53 (no result: E-selectin induc)
COc1ccccc1-c1cn(CC[C@H]2CC[C@H](NC(=O)C3CC3)[C@H](CO)O2)nn1	none
COCCCNC(=O)c1ccc2nc(Cc3ccc(OC)cc3)oc2c1	esBAF inh 71 (no result: PGC1a acetyl inh, E-selectin induc)
C=CCNC(=O)c1ccc2nc(Cc3ccc(OC)cc3)oc2c1	esBAF inh 89 (no result: PGC1a acetyl inh, E-selectin induc)
COc1ccc(Cc2nc3ccc(C(=O)N(C)CCO)cc3o2)cc1	none (no result: E-selectin induc)
C[C@@H]1CCCCO[C@@H](CN(C)S(C)(=O)=O)[C@@H](C)CN([C@H](C)CO)C(=O)c2cc(NC(=O)Nc3ccc4c(c3)OCO4)ccc2O1	none (no result: C2C12 statin)
O=C(C[C@H]1CC[C@H](NC(=O)Nc2ccccc2F)[C@H](CO)O1)NCc1ccc(F)cc1	none (no result: C2C12 statin, Yeast UUG start, esBAF inh, PglD DTNB)
Cc1cccc(N2C(=O)C(Cl)=C(N3CCOCC3)C2=O)c1	PGC1a acetyl inh 81
COc1ccc(S(=O)(=O)N(C)C[C@@H]2Oc3ccc(NS(=O)(=O)c4ccc(Cl)cc4)cc3C(=O)N([C@@H](C)CO)C[C@@H]2C)cc1	none
CCOC(=O)c1ccc(NC(=S)N2CCCC(C(=O)OCC)C2)cc1 (stereo not drawn)	C2C12 statin 90
C[C@@H]1CN([C@H](C)CO)C(=O)c2cc(NS(=O)(=O)c3ccccc3)ccc2O[C@@H](C)CCCCO[C@@H]1CN(C)Cc1ccc(C(=O)O)cc1	none
O=C(Nc1ccc2c(c1)nc1n2CCOC1)C1CCCCC1	esBAF inh 53 (no result: E-selectin induc)
